# Ab-14 light chain CDR variants: yeast mating affinities

Reference: Li et al. 2023, doi:10.1038/s41467-023-39022-2. File: FLAb, binding data.

The target is the same throughout: PDVDLGDISGINAS, from the HR2 region of SARS-CoV-2 spike.

Parent: Ab-14, a human scFv built as VH, a 15-residue (Gly4Ser)3 linker, VL. Only the CDRs of the light chain vary.
VH: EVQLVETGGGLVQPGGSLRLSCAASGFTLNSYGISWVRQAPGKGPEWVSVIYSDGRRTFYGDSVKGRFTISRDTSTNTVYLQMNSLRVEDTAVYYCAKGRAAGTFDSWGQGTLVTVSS
VL: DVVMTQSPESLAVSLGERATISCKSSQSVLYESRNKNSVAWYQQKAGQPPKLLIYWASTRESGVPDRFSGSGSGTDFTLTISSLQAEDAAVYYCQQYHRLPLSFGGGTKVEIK

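The parent was found by panning a naive human phage display library on the peptide. This is the validation round: designs drawn from the data on random variants, tested in the same kind of assay. Their group label is 14L_En_Gen (En: ensemble of fine-tuned language models; Gen: genetic algorithm). Affinity was read by AlphaSeq, a pooled yeast mating assay with surface-displayed partners. Binding brings cells together so that they mate, and sequencing counts the barcode pairs among the diploids. A regression on co-assayed BCL2-family reference pairs converts the normalised counts of each replicate to an apparent Kd. Mating was done six times.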

Variants are written as CDR1, CDR2 and CDR3 of the light chain (limits as in the source). Parent: KSSQSVLYESRNKNSVA, WASTRES, QQYHRLPLS.
Numbers give log10(Kd / nM), so 0 is 1 nM and 3 is 1 µM. Smaller is tighter.
A pair that was not seen in that replicate is written "ND"; this usually means weak binding, but a binder can also be missed.
The authors' rule: three or more of the six replicates give a measured affinity, fewer mean a poor binder.

| # | CDR-L1 | CDR-L2 | CDR-L3 | replicates, log10 nM | control signals |
|---|---|---|---|---|---|
| 1 | NIYQAMHTLSQMKDNVA | DVNERGT | QQYFRLPLS | -0.50 -0.39 -0.19 -0.44 -0.30 -0.18 | 0/18 |
| 2 | KLTMITGLEKVSKNQVA | EMETREQ | QQYNRLPLS | 0.94 0.96 0.99 1.13 1.18 0.55 | 0/18 |
| 3 | MMSQVTGMGQRHRNNVA | QTSTREP | QQYDHLPLI | 1.41 0.98 0.76 0.82 0.89 0.79 | 1/18 (1.94) |
| 4 | KISQMVRVGTTHGNSIA | EEATRAK | QQYHRLPLF | 0.99 0.84 0.93 1.01 1.05 1.31 | 3/18 (2.64) |
| 5 | MLSEVLHMLGVAKNSIA | DLVLRAN | QQYHRLPLF | ND ND 1.18 ND ND ND | 1/18 (1.13) |
| 6 | HIGMATMSQETVRNSVA | NNSTRES | QQYDRLPLS | 1.31 1.07 1.57 1.50 1.37 1.55 | 1/18 (2.18) |
| 7 | MVSQLMWWGMHAKNSIA | EAQTRLN | QQYDRLPLF | ND ND ND ND 2.38 ND | 0/18 |
| 8 | HITYGMQVMGRHSKSIA | QAEERAK | QQYDRLPLI | 0.71 0.90 1.13 1.11 1.02 1.51 | 0/18 |
| 9 | KLSMVTGHMSVAKNNVA | EMETREN | QQYDRLPLS | 0.14 0.39 -0.29 0.04 0.34 0.35 | 1/18 (2.78) |
| 10 | TISQMTSLFSMSINNVA | EVSTRET | QQYDRLPLA | 1.21 0.83 0.89 0.64 1.15 1.08 | 1/18 (2.69) |
| 11 | KLTSVTGQEKVRGNNVA | EMATREN | QQYNRLPLS | 0.17 -0.04 -0.19 -0.26 -0.25 0.16 | 1/18 (2.36) |
| 12 | MMSQVTGQGTRHRNNVA | QTSEREP | QQYDRLPLV | -0.08 -0.08 -0.12 0.28 -0.47 -0.06 | 0/18 |
| 13 | TISELYNQALGMRNSVA | NNQTRED | QQYDRLPLS | ND ND ND ND ND ND | 0/18 |
| 14 | MIHESMGLMSHKHSSIA | DNSTRED | QQYDRLPLS | 0.75 0.74 0.78 0.98 0.70 0.77 | 1/18 (2.21) |
| 15 | KLYDMAALTVNNIRNVA | DNDTREQ | QQYHRLPLS | 2.05 0.94 1.85 1.07 1.16 1.91 | 0/18 |
| 16 | KLSMTTEMEHKNRNSVA | ELVTRMA | QQYNRLPLS | 0.42 0.45 0.66 0.47 0.28 0.62 | 0/18 |
| 17 | MVSMNIYGEYRHRDNVA | HASMRED | QCYDRLPLS | 0.66 -0.42 0.20 -0.57 0.55 -0.58 | 0/18 |
| 18 | KLSQLTGHMKMVKNNVA | EMVTREN | QQYNRLPLS | 0.48 0.48 0.42 0.45 0.30 0.45 | 0/18 |
| 19 | MISQLTNMGQFAINSVA | QASERSN | QQYDRLPLM | 1.06 0.44 1.02 0.72 0.79 0.94 | 3/18 (2.02) |
| 20 | KVSEFMRGMMRQKDSIA | DNETRSN | QQYDRLPLS | 1.48 1.59 1.14 1.42 1.04 1.65 | 2/18 (2.72) |
| 21 | HLGWATMLEETVRNSVA | NNSTREE | QQYDRLPLS | ND ND ND ND 3.00 ND | 0/18 |
| 22 | KVSEFMRGLMKMQDSIA | DNETRPD | QQYDRLPLS | 2.47 1.98 2.26 4.08 2.11 2.78 | 1/18 (2.89) |
| 23 | TISQLHNMGTFAINSVA | QASIRNA | QQYDRLPLM | 0.10 0.29 -0.08 -0.03 -0.09 0.30 | 2/18 (2.70) |
| 24 | KIGGTLNMLEHKQNNVA | DLVERGN | QQYFRLPLS | -0.31 -0.57 -0.42 -0.56 0.13 -0.02 | 1/18 (1.83) |
| 25 | KLSMLTEMEHVNRNSVA | ELVTRMR | QQYNRLPLS | 0.84 0.70 0.20 0.09 0.57 0.92 | 1/18 (2.24) |
| 26 | KVSEFMRGLMKKSDSIA | DNETRGA | QQYDRLPLS | 1.15 1.41 1.61 1.04 1.47 1.71 | 1/18 (2.25) |
| 27 | HMSMLTLQGMRHTNSVA | QMTTREN | QQYDHLPLS | 0.81 1.91 0.52 0.23 0.66 0.71 | 1/18 (2.78) |
| 28 | KVSEFMRGLMMRTDSIA | DNVTREN | QQYDRLPLS | 2.84 1.78 2.65 ND 3.92 2.87 | 1/18 (2.82) |
| 29 | MISEMMHMIGAKKNSIA | DLVMRAN | QQYHRLPLS | 0.90 0.93 0.81 1.14 0.81 0.99 | 6/18 (3.07) |
| 30 | HVSMLTLGGLKQRNSVA | QMTTREN | QQYDRLPLS | 0.89 0.87 0.54 0.25 0.41 0.81 | 0/18 |
| 31 | QISMLLNFESKKGSNVA | QMETRVN | QQYDRLPLS | 0.52 0.54 0.38 0.50 0.34 0.58 | 1/18 (3.08) |
| 32 | TLYGLSNSMSINKNSVA | EMTTREK | QQYDRLPLE | ND ND ND ND ND ND | 0/18 |
| 33 | KLSMLTEMEHKNRNSVA | ELVTRMA | QQYNRLPLS | 0.95 0.39 0.33 0.61 0.45 0.81 | 0/18 |
| 34 | MISMMMRQETGVRNNIA | NSQTREQ | QQYHRLPIS | 1.32 0.74 0.71 0.74 0.77 0.96 | 1/18 (1.52) |
| 35 | SLGLSTMLEEYVRNSVA | NNSTREQ | QQYDRLPLS | ND ND ND 2.53 ND 2.27 | 0/18 |
| 36 | MMSQVTGQGTRHRNNVA | QTEVREP | QQYDRLPLI | 0.97 0.75 0.32 0.43 0.88 0.20 | 0/18 |
| 37 | KLSMTHLMESVNRNSVA | ELVTRMR | QQYNRLPLS | 0.63 0.19 0.24 0.26 0.31 0.33 | 0/18 |
| 38 | KLVQFMNRGTHHTSNIA | DAQNRLD | QQYYRLPLA | ND ND ND ND ND ND | 0/18 |
| 39 | MVYSAVMLGGSTRNSIA | NAQTRCD | QQYHRLPLI | 0.41 0.36 0.62 0.36 0.56 0.47 | 0/18 |
| 40 | MIGQMLGWESNKIHSVA | QANLREE | QQYDRLPLE | 1.75 1.08 0.85 1.26 1.16 0.91 | 0/18 |
| 41 | MMSQVTGSGTRHRNNVA | QTSMREP | QQYDRLPLV | 0.93 1.15 1.15 1.31 ND 1.61 | 0/18 |
| 42 | IVSQLMLWGLHAKNSIA | EAETRGN | QQYDRLPLF | ND ND ND ND ND 1.57 | 1/18 (1.11) |
| 43 | MVNGIMDHLSKNTNNVA | ETTTRNE | QQYDRLPLS | ND ND ND ND ND ND | 0/18 |
| 44 | TIGQMLMQGIRNRSNVA | EVSQRLN | QQYDRLPLI | 1.58 1.43 0.93 0.86 1.28 1.04 | 1/18 (2.51) |
| 45 | MMSQVTGYGTRMRNNVA | QTSTREP | QQYDRLPLI | 1.28 1.05 0.83 0.75 0.86 1.33 | 0/18 |
| 46 | IVSQLMMWGLHAKNSIA | EAEMRTN | QQYDRLPLF | ND ND ND ND ND ND | 0/18 |
| 47 | MLSQMWGIGQKAKNSVA | QASMRFN | QQYDRLPLI | 1.40 1.48 1.34 1.44 1.53 1.38 | 1/18 (2.45) |
| 48 | HIGQSMLGENVKARSVA | HMNTRED | QQYDRLPLS | 0.17 0.13 0.06 0.00 0.24 0.12 | 0/18 |

The first 5 variants above that were never detected:

| CDR-L1 | CDR-L2 | CDR-L3 | replicates, log10 nM | control signals |
|---|---|---|---|---|
| TISELYNQALGMRNSVA | NNQTRED | QQYDRLPLS | ND ND ND ND ND ND | 0/18 |
| TLYGLSNSMSINKNSVA | EMTTREK | QQYDRLPLE | ND ND ND ND ND ND | 0/18 |
| KLVQFMNRGTHHTSNIA | DAQNRLD | QQYYRLPLA | ND ND ND ND ND ND | 0/18 |
| MVNGIMDHLSKNTNNVA | ETTTRNE | QQYDRLPLS | ND ND ND ND ND ND | 0/18 |
| IVSQLMMWGLHAKNSIA | EAEMRTN | QQYDRLPLF | ND ND ND ND ND ND | 0/18 |

The parent sequence was in this pool as ten entries: three were never detected, three once, and four in most replicates, with averages from 0.34 to 2.37.
Values of this round are not directly comparable with the first-round values of the same sequences.
Three control strains display no target. For all light chain designs, 4% of the pairings with them gave a signal, with a median of 2.64 and one signal in twenty below 1.59, so weak values seen in few replicates may be background. The control count says in how many pairings with the empty strains this scFv gave a signal, with their mean in brackets.